Source: ChEMBL document CHEMBL2321806, “Optimization of peptide hydroxamate inhibitors of insulin-degrading enzyme reveals marked substrate-selectivity” (J Med Chem, 2013)

Chains of the proteins cited; added tags and fusions are not shown.
UniProt P14735, whole entry: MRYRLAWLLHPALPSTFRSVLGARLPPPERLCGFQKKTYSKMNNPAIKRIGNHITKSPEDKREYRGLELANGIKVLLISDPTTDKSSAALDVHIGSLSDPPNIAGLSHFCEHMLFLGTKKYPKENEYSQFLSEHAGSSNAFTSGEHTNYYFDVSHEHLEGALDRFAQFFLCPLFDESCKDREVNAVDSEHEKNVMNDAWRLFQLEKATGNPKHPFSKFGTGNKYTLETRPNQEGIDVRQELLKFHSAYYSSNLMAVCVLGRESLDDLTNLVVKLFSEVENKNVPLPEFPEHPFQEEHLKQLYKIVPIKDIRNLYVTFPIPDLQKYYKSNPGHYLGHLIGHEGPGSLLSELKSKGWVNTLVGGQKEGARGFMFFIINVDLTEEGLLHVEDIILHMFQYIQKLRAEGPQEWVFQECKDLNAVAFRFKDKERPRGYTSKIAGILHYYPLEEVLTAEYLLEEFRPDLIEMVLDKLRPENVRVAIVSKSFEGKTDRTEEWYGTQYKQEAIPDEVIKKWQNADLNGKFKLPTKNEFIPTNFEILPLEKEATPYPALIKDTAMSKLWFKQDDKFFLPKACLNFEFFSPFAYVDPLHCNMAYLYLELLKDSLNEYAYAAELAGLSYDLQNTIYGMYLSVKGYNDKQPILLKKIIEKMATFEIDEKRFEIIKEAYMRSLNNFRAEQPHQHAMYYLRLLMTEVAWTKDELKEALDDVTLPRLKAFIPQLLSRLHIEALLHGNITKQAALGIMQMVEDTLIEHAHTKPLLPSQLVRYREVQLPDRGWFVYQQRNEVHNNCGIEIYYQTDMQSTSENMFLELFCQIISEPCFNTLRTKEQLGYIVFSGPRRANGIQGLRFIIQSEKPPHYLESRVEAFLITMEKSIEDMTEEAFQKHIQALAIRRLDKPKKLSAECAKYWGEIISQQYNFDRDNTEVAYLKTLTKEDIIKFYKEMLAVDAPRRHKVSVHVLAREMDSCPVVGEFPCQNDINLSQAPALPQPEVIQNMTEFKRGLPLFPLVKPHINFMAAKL

Target: Insulin-degrading enzyme (Homo sapiens, UniProt P14735)
Experiment: Selectivity ratio of apparent Ki for human recombinant IDE-mediated fluorescein-Abeta-(1-40)-Lys-biotin degradation to apparent Ki for human recombinant IDE-mediated FRET1 degradation

N=C(N)NCCC[C@H](NC(=O)[C@@H](CC(=O)NO)Cc1ccc2ccccc2c1)C(=O)N[C@@H](Cc1c[nH]c2ccccc12)C(=O)N[C@@H](CCC(=O)O)C(N)=O
Ratio Ki(app): 10
